pIC50: −log10 of the molar value.
Molecular target: human p110β/p85α (Homo sapiens, UniProt P42338)
Assay: Kinase-Glo Plus luminescent kinase assay
Format: biochemical
Details: read-out: IC50 p110β; 2 μM ATP, 37°C, 2 h

The chains behind the UniProt entries cited, without tags or fusion partners. Where a name states a change or a piece, a line headed by the entry shows the natural chain unless it says otherwise.
UniProt P42338: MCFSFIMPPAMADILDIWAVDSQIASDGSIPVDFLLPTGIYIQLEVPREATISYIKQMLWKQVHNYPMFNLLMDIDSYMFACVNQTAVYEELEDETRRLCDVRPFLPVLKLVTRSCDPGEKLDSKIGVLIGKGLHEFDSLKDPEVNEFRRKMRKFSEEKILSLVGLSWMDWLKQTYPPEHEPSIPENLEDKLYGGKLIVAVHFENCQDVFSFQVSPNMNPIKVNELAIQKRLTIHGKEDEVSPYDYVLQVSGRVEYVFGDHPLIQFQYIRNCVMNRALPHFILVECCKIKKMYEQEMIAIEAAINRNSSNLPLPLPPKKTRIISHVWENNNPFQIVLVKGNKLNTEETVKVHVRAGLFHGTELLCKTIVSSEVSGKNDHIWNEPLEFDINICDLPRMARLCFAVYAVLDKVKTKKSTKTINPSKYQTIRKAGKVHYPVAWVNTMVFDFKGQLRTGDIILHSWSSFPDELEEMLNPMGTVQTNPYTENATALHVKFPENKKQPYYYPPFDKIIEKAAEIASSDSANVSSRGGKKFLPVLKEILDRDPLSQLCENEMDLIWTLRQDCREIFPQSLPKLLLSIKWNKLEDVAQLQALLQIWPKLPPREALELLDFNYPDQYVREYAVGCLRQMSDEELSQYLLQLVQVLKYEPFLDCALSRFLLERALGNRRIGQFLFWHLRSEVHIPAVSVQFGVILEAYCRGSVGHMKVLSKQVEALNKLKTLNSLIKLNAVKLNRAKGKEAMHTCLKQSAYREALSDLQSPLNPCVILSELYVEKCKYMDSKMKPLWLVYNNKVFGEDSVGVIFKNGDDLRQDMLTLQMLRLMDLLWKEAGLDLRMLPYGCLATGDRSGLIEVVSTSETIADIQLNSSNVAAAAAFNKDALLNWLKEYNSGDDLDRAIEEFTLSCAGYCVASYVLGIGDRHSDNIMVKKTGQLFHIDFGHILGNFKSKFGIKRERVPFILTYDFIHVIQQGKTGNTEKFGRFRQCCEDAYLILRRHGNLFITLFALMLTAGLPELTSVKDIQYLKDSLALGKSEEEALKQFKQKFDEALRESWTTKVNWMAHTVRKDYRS

Cc1cc(C(C)Nc2ccccc2)c2nc(N3CCOCC3)cc(=O)n2c1 (stereo not shown) [TGX221]
pIC50: 8.32
